Data on one compound can be found in patent US11066414B2, “Cot modulators and methods of use thereof” (Gilead Sciences, Inc., priority 2015, dated 2021).

The test system of this assay is TNFα. The assay is described as follows: Cot Monocyte TNFα Cell Based Assay. The conditions noted are these: read-out: EC50 TNF, LPS-stimulated human monocytes.

Turning to `Cc1nc(F)ccc1C(Nc1cc(Cl)c2ncc(C#N)c(N[C@H](CCC#N)c3ccccc3)c2c1)c1cn(C2CC2)nn1` (stereo partly drawn) [Example 72, 8-chloro-4-(((R)-3-cyano-1-phenyl-propyl)amino)-6-(((1-cyclopropyl-1H-1,2,3-triazol-4-yl)(6-fluoro-2-methylpyridin-3-yl)methyl-d)amino)quinoline-3-carbonitrile], the EC50 came to 11 nM.
